# In publication PMC6642186, “Molecular mechanism of setron-mediated inhibition of full-length 5-HT3A receptor” (Nature Communications, 2019):
# Amino acid sequences for entries named in this document (tags omitted). Residues count along the entry.
# UniProt P23979, 24-483 isoform P23979-2 limits assumed: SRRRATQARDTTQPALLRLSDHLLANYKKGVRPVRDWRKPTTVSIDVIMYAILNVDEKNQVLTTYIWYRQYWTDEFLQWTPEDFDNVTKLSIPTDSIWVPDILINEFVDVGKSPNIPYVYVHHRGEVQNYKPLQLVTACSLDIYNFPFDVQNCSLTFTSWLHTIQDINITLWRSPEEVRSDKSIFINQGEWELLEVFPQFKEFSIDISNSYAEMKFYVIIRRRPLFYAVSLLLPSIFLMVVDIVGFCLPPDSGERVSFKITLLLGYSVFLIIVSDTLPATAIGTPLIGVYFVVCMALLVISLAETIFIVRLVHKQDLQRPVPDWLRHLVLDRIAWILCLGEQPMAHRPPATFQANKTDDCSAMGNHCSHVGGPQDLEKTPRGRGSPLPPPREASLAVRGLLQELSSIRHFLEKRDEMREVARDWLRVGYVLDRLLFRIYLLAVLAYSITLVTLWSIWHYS
# “Also recorded” adds a separate entry of the source.
# Molecular target: T1, wild-type (WT) 5-HT3AR (Mus musculus, UniProt P23979)
# T1 construct: Full-length 5-HT3AR messenger RNA (mRNA) was injected into oocytes; expressed in transfected cells; host or cells: Xenopus laevis oocytes (mRNA injection, pTLN vector)
# Test: Granisetron inhibition of serotonin-activated currents, TEVC in oocytes
# Assay type: cell-based
# Protocol: Data are shown as mean ± s.d. (n is indicated within parentheses). Significance at p = 0.001 (***) and […] calculated by two-sample t test for WT and mutants. Source data are provided as a Source Data file
# The gene encoding mouse 5-HT3AR (purchased from GenScript) was inserted into a Xenopus laevis expression vector (pTLN) using cloning primers shown in Supplementary Table 1. DNA linearization was carried out with the Mlu1 restriction enzyme overnight at 37 °C. mRNA synthesis was done using the mMessage mMachine Kit (Ambion) as per the manufacturer’s instructions and purification was done with RNAeasy Kit (Qiagen). mRNA for studied mutants was prepared in the same way. Three to ten nanograms of mRNA was injected into X. laevis oocytes (stages V–VI) and experiments were performed 2–5 days after injection. For control experiments to verify that no endogenous currents were present, oocytes were injected with the same volume of water. W.F. Boron kindly provided oocytes used in this study. Female X. laevis were purchased from Nasco. Animal experimental procedures were approved by Institutional Animal Care and Use Committee (IACUC) of Case Western Reserve University. […] Oocytes were clamped at a holding potential of −60 mV. Solutions were changed using a syringe pump perfusion system flowing at a rate of 6 ml/min.
smiles,measurement,setting,value
CN1C2CCCC1CC(NC(=O)c1nn(C)c3ccccc13)C2 (stereo not shown) [granisetron],effect on currents induced by 10 µM serotonin,100 nM granisetron,completely eliminates currents; also recorded: completely eliminates activation
same,reversibility of inhibition,granisetron washed off and serotonin subsequently applied,fully reversible
same,effect on peak current,"oocytes pre-exposed to 1 nM granisetron, 10 µM serotonin",significantly inhibited
same,currents evoked by granisetron alone (agonist activity),"up to 100 nM, no serotonin",does not evoke currents
